# Values joined by “and” are separate entries in the source; they are usually repeats but may differ in a detail not shown here. Identical values can stand only once.
# Settings: n-octanol/PBS pH 7.4, individual replicates
structure (smiles),measurement,value
"CCCN(CCC)C(=O)Cc1c(-c2ccc([18F])cc2)nc2c(Cl)cc(Cl)cn12 [[^18F]BS224, 2-(-2-(4-[^18F]fluorophenyl)-6,8-dichloro-imidazo[1,2-a]pyridin-3-yl)-N,N-dipropylacetamide]",Log D (single measurements 1-5),2.824 and 2.816

# — PMC8712300 (European Journal of Nuclear Medicine and Molecular Imaging, 2021)
